{"source": "patent US20110223597A1", "about": "(priority 2010, published 2011)", "tested_on": "HLM", "conditions": "300 μM OLZ; UGT2B10 (*1/*1) HLM"}
{"molecule": "Cc1cc2c(s1)Nc1ccccc1N=C2N1CCN(C)CC1", "note": "[OLZ, Olanzapine]", "values": [{"measurement": "difference in formation of any OLZ glucuronide, UGT1A4 (*2/*2) versus UGT1A4 (*1/*1) HLM", "result": "no significant difference"}]}
